Literature values as cited in patent US7618630B2, “Methods of treating multiple myeloma and myeloma-induced bone resorption using integrin antagonists” (Board of Regents, The University of Texas System, priority 1998, dated 2009).

Chains of the proteins cited; added tags and fusions are not shown. Residues count along the entry.
UniProt P13612, 34-1032: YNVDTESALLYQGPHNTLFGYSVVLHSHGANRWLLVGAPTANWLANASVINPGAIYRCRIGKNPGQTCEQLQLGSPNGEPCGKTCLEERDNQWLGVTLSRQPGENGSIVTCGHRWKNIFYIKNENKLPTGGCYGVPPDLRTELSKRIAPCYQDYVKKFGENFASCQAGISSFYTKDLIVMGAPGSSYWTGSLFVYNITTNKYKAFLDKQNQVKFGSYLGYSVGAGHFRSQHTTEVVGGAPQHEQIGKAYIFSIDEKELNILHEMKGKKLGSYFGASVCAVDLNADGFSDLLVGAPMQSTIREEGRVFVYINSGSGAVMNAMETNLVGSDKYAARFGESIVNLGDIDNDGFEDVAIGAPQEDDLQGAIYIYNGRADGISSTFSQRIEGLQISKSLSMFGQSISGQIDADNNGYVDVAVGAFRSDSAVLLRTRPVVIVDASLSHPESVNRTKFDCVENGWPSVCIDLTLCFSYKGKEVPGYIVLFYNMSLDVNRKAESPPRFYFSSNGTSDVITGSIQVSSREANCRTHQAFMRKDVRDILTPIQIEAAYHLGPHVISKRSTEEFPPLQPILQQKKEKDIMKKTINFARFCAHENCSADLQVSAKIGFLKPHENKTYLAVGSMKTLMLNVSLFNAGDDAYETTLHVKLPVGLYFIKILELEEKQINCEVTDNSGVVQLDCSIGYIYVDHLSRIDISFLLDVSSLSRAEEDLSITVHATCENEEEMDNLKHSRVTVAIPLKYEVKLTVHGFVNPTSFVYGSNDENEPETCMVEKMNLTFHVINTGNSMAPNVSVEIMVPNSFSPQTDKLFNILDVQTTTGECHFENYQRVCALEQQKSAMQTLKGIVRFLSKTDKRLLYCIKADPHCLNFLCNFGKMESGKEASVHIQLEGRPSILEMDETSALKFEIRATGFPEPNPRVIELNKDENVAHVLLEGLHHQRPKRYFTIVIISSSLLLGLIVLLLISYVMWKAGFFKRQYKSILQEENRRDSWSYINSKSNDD

Biological target: VLA-4 (Homo sapiens, UniProt P05556+P13612)
Conditions: cited from earlier work

## Glu-Ile-Leu-Asp-val-Pro-ser-Thr
  inhibitory activity against fibronectin-dependent cell adhesion: possessed inhibitory activity against fibronectin-dependent cell adhesion
